Assay results taken from patent US10246453B2, “Benzenesulfonamide compounds and their use as therapeutic agents” (Xenon Pharmaceuticals Inc., priority 2016, dated 2019).
Structures can show the parent of a compound that is named as a salt.

Amino acid sequences for entries named in this document (tags omitted). Chains listed by the source or under a name are the forms on record and can include a tag or linker.
UniProt Q14524, other isoform, or with tags, fused parts or gaps: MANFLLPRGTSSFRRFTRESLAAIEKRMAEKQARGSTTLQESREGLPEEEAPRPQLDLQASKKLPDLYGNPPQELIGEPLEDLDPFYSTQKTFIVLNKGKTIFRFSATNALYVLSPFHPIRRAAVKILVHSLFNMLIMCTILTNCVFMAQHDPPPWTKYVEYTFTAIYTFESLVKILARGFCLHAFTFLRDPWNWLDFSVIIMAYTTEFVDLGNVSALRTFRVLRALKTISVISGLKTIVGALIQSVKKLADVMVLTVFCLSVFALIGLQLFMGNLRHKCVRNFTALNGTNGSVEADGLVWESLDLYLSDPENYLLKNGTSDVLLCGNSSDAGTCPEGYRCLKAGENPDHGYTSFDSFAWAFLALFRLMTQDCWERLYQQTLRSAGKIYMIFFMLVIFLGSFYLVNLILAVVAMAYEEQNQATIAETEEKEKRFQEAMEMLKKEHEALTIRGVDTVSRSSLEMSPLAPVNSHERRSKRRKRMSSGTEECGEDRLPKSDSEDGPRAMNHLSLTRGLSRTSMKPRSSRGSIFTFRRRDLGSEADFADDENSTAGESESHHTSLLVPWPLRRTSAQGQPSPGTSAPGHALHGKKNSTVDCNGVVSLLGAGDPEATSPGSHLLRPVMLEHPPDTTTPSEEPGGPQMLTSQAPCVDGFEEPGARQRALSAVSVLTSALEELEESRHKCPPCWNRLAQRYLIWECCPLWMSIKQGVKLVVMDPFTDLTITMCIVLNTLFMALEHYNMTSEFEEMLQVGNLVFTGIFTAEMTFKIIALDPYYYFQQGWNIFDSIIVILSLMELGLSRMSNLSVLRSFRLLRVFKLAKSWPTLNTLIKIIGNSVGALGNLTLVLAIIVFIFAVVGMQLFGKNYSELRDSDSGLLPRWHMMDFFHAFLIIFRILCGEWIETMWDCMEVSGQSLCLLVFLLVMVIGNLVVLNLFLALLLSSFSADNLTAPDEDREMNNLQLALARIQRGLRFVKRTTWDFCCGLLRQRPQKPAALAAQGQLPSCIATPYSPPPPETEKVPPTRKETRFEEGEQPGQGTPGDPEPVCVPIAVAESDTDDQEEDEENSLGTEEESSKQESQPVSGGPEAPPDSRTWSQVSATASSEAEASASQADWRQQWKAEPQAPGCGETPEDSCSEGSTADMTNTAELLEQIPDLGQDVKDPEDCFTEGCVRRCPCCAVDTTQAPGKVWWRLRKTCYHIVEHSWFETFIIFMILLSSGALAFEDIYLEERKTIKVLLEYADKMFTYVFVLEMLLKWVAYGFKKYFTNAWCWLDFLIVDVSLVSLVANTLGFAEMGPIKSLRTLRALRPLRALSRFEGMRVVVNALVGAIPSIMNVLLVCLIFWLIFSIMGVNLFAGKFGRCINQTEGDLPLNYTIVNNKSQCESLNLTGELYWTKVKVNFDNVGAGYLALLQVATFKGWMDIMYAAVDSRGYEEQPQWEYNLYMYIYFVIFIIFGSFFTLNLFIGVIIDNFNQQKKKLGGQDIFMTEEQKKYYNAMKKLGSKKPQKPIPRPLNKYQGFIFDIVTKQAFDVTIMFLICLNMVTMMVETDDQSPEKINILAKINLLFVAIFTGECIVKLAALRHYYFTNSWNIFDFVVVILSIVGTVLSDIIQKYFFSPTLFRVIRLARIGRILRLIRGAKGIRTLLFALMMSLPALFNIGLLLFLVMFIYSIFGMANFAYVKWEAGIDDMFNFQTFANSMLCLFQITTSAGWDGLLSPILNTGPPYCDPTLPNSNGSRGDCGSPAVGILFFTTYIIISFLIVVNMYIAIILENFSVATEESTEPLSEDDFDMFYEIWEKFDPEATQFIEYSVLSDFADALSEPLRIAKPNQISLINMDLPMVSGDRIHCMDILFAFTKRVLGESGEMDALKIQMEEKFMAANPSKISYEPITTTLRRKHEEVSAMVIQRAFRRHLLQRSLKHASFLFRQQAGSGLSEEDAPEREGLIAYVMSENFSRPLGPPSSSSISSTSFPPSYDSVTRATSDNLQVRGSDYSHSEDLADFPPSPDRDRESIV
UniProt Q9UQD0, whole entry, looked up: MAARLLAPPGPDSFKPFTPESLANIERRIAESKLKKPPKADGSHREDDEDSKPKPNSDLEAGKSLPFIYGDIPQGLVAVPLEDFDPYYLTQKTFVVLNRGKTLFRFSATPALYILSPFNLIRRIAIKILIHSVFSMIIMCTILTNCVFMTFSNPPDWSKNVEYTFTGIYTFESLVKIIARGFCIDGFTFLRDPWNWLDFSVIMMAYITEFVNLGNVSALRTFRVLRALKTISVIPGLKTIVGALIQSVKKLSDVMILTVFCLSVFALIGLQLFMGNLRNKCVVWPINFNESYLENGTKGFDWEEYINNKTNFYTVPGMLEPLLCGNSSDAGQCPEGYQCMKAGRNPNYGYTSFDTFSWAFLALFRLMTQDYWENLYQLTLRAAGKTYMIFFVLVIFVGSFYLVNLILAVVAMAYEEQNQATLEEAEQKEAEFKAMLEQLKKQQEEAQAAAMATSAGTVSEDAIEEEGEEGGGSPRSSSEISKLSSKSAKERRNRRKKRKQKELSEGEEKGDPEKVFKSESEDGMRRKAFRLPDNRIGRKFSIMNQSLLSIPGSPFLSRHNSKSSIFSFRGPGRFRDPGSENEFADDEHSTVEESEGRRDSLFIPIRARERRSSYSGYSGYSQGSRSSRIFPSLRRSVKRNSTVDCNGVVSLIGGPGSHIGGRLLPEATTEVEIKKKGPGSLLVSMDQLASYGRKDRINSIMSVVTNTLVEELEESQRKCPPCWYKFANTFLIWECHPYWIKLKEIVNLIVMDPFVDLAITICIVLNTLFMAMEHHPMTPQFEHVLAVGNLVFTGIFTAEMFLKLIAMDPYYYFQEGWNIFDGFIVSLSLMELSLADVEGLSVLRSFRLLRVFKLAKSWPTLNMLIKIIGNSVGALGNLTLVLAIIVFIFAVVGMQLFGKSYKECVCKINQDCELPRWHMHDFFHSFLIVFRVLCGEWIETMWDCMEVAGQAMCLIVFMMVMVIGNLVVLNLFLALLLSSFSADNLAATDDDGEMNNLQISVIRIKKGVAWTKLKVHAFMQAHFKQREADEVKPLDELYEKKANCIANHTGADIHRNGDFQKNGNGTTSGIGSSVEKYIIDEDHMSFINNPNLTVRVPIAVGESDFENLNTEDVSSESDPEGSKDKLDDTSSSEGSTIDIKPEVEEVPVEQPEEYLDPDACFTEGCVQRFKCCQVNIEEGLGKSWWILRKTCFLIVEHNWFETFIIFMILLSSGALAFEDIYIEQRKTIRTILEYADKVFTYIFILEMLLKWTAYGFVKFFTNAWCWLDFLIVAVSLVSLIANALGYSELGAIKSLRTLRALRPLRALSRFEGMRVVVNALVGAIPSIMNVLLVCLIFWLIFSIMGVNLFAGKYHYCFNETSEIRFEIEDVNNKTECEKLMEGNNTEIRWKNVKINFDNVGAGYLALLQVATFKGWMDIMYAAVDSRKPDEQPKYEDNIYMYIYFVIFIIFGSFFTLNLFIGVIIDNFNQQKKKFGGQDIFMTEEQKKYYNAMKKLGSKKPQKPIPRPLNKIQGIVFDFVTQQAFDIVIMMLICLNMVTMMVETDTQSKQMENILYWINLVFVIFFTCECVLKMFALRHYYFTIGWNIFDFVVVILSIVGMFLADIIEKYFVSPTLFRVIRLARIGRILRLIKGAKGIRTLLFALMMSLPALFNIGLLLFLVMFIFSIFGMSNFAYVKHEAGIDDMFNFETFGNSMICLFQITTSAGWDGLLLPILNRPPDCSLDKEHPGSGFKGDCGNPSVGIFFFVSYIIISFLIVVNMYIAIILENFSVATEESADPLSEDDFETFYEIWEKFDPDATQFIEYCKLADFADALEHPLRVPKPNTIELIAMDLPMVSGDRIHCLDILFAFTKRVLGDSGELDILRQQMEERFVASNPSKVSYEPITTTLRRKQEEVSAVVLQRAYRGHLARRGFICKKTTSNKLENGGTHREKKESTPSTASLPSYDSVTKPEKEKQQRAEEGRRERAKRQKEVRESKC

Experiments:
NaV1.1 [1] = target: T1, NaV1.1 (Homo sapiens (Human), UniProt P35498); assay: Sodium Influx Assay (Flux), NaV1.1; format: cell-based; settings: Trex HEK293 cells, ANG2 dye; arithmetic mean
NaV1.5 [2] = target: T2, NaV1.5 (Homo sapiens (Human), UniProt Q14524); assay: Sodium Influx Assay (Flux), NaV1.5; settings: read-out: Flux NaV1.5 IC50; Trex HEK293 cells, ANG2 dye; arithmetic mean
NaV1.5 [3] = target: T2, NaV1.5; assay: cell-based
NaV1.6 = NaV1.6 (Homo sapiens (Human), UniProt Q9UQD0); assay: Sodium Influx Assay (Flux), NaV1.6
NaV1.1 [4] = target: T1, NaV1.1; assay: Electrophysiological Assay (EP), patch voltage clamp, NaV1.1; format: cell-based; settings: HEK-293 cells, whole-cell patch clamp, inactivated state; arithmetic mean

Structure (SMILES): O=S(=O)(Nc1nccs1)c1ccc(OC2CCN(Cc3ccccc3)CC2)c(Cl)c1 [Example 95, 4-(1-benzylpiperidin-4-yloxy)-3-chloro-N-(thiazol-2-yl)benzenesulfonamide 2,2,2-trifluoroacetate]
- IC50 (NaV1.1 [1]): 14.7 µM

Structure (SMILES): C[C@@]1(Oc2cc(F)c(S(=O)(=O)Nc3cscn3)cc2Cl)CCN(Cc2ccccc2)C1 [Example 311B, (R)-4-((1-benzyl-3-methylpyrrolidin-3-yl)oxy)-5-chloro-2-fluoro-N-(thiazol-4-yl)benzenesulfonamide]
- IC50 (NaV1.1 [1]): 18.1 µM
- IC50 (NaV1.5 [2]): 26.1 µM

Structure (SMILES): C[C@]1(Oc2cc(F)c(S(=O)(=O)Nc3cscn3)cc2Cl)CCN(Cc2ccccc2)C1 (single isomer, unassigned) [Example 311A]
- IC50 (NaV1.5 [3]): 10.5 µM
- IC50 (NaV1.6): 18.3 µM

Structure (SMILES): C[C@@H]1CN(Cc2ccccc2F)CC[C@@H]1Oc1ccc(S(=O)(=O)Nc2nccs2)cc1Cl (relative stereo) [Example 10A, 3-chloro-4-((cis-1-(2-fluorobenzyl)-3-methylpiperidin-4-yl)oxy)-N-(thiazol-2-yl)benzenesulfonamide]
- IC50 (NaV1.5 [3]): 5.16 µM

Structure (SMILES): C[C@@H]1CN(Cc2ccccc2)CC[C@@H]1Oc1ccc(S(=O)(=O)Nc2nccs2)cc1Cl (relative stereo) [Example 8A, 4-((cis-1-benzyl-3-methylpiperidin-4-yl)oxy)-3-chloro-N-(thiazol-2-yl)benzenesulfonamide]
- IC50 (NaV1.5 [3]): 4.81 µM

Structure (SMILES): Cc1cc(S(=O)(=O)Nc2cscn2)c(F)cc1N(C)[C@H]1CCN(Cc2ccccc2)C1 [Example 101, (S)-4-((1-benzylpyrrolidin-3-yl)(methyl)amino)-2-fluoro-5-methyl-N-(thiazol-4-yl)benzenesulfonamide formate]
- IC50 (NaV1.1 [4]): 31.7 µM

Structure (SMILES): CC1(Oc2cc(F)c(S(=O)(=O)Nc3cscn3)cc2Cl)CCN(Cc2ccccc2)C1 (racemic) [Example 310, rac-4-((1-benzyl-3-methylpyrrolidin-3-yl)oxy)-5-chloro-2-fluoro-N-(thiazol-4-yl)benzenesulfonamide]
- IC50 (NaV1.5 [3]): 18.2 µM
